1 molecule from patent publication US20200331855A1, “CO-CRYSTAL OF TOCOPHEROL AND PROLINE AND PREPARATION METHOD THEREOF” (priority 2017, published 2020) can be followed below.

Data set [1] can be described thus: Long-term test stability (25° C./60% relative humidity). The data set is classed as physicochemical. The note with it: Month 3. The protocol:
(§1) The content was determined by HPLC, and the content was calculated by the external standard method.

Data set [2] in a line: Accelerated test stability (40° C./75% relative humidity), D-α-tocopherol vs co-crystal. It counts as physicochemical. The following applies: Month 3. The protocol: as §1

`Cc1c(C)c2c(c(C)c1O)CC[C@@](C)(CCC[C@H](C)CCC[C@H](C)CCCC(C)C)O2` [D-α-tocopherol]: the content in data set [1] and in data set [2] was 96.9% in each case.
